By UniProt entry, the sequences of proteins in these tests, tags left out. Residues count along the entry.
UniProt P03303, 1538-1719: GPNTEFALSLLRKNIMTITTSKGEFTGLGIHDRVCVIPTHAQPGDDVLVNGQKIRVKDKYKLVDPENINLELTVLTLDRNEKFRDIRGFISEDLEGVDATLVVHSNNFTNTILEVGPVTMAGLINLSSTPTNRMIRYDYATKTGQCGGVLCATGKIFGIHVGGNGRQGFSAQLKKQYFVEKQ

In US12065428B2, “Anti-viral compounds” (Aligos Therapeutics, Inc., priority 2021, dated 2024):

Molecular target: T1, HRV3C (Human rhinovirus 14, UniProt P03303)
T1 construct: SARS-Cov-2 3CLpro and HRV3C Duplex Assay
Test: biochemical

O=C(NC1CC1)C(=O)[C@H](C[C@@H]1CCNC1=O)NC(=O)[C@@H]1CC2(CCN1C(=O)[C@@H]1C[C@]13CCCc1ccccc13)CC2 (relative stereo) [Compound 34B]
IC50 (HRV3C, duplex assay, 30 mins preincubation, class symbols, read-out: HRV IC50): 2 to 20 µM

O=C(NC1CC1)C(=O)[C@H](C[C@@H]1CCNC1=O)NC(=O)[C@@H]1CC2(CCN1C(=O)[C@H]1C[C@@]13CCCc1ccccc13)CC2 (relative stereo) [Compound 34A, (S)—N—((S)-4-(cyclopropylamino)-3,4-dioxo-1-((S)-2-oxopyrrolidin-3-yl)butan-2-yl)-6-((1S*,2S*)-3′,4′-dihydro-2′H-spiro[cyclopropane-1,1′-naphthalene]-2-carbonyl)-6-azaspiro[2.5]octane-5-carboxamide]
IC50: > 10 µM

Where two headings read alike, the source gives them in different places.
